scFv variants of Ab-91 (heavy chain) against a SARS-CoV-2 spike peptide

From the AlphaSeq antibody data of Engelhart et al. 2022 (doi:10.1038/s41597-022-01779-4), copy in the FLAb collection.

All variants were tested on one target, the spike HR2 peptide PDVDLGDISGINAS (SARS-CoV-2).

The variants keep the light chain, the linker and the frameworks of Ab-91 (scFv order VL, a (GGGGS)3 linker, VH).
VL: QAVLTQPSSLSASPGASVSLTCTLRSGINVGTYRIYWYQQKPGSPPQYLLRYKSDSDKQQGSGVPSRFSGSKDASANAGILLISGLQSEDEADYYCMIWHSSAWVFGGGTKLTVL
VH: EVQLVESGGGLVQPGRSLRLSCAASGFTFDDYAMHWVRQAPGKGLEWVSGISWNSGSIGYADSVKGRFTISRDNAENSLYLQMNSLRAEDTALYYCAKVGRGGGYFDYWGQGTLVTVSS

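The starting antibody came from a phage panning campaign against this peptide. AAYL51 was designed without a model: most single CDR substitutions and a random sample of double and triple ones. AlphaSeq pools MATa yeast showing the antibodies with MATalpha yeast showing the peptide. After mating in shaken culture at 30 °C for 16 h, diploids were selected and their barcode pairs sequenced. Read counts were normalised to the haploid input and turned into Kd by a linear fit to BCL2-family pairs of known affinity, for each replicate. Each pool was mated in three replicate cultures.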

Positions count from residue 1 of the parent VH; T28S puts S in place of T.
The Kd shown is the geometric mean over detected replicates; a lower Kd is a better binder.
An entry "not detected" has no value in the source: the pair was not observed among the diploids in any replicate. This suggests poor binding but is not conclusive.
As a blank, each scFv also met three strains without target: over library AAYL51, 21% of these pairings were detected, typically at 34 µM and seldom below 1.8 µM.
Parent in this assay: reference entry 72 nM, copy in this library 7.5 nM.

changes | Kd (apparent) | detected
T28S/D31C/G100K | 660 µM | 1/3
G26S/D30Y/D62L | not detected | 0/3
W53I/G59Y/F106I | 28 µM | 1/3
F29C/S52V/D107F | 20 µM | 2/3
F29E/I51R/Y108Q | not detected | 0/3
Y32K/S52W/K65Y | 48 µM | 1/3
G26C/D30S/I51R | not detected | 0/3
G59C/Y60D | 230 µM | 1/3
N54Q/G59F/G102I | 90 µM | 2/3
D30Y/F106S | 17 µM | 1/3
G56Y/Y60D/Y105G | not detected | 0/3
G103D/D107A | 68 µM | 1/3
T28K/Y32S/G100A | 4.8 µM | 3/3
G56I/Y60S/V64Y | 980 µM | 1/3
G26M/N54E/G100R | 120 µM | 2/3
I51A/S55C/F106E | not detected | 0/3
N54I/Y60M | not detected | 0/3
S55D/Y60V/Y105C | not detected | 0/3
H35F/S52T/S63P | 60 µM | 1/3
F27I/Y32P/S55R | 110 µM | 1/3
Y32E/I58T | not detected | 0/3
Y32K/G50F/S55Y | 150 µM | 2/3
I51Q/D62F/K65T | not detected | 0/3
D31E/A33E/G50C | 420 µM | 3/3
G59W/K65Q/G102Q | not detected | 0/3
F29R/A33K/D62Q | 52 nM | 3/3
T28E/V99W/G104N | not detected | 0/3
F27H/V64F/F106L | not detected | 0/3
H35A/V99M/G103P | not detected | 0/3
T28Y/K65M | not detected | 0/3
T28W/Y32Q/G56Q | not detected | 0/3
G26T/I51Q/S55P | 32 µM | 2/3
G26L/G56P/S57N | not detected | 0/3
D31N/M34I/H35R | not detected | 0/3
S55K/Y60E/G104Y | not detected | 0/3
D30P/S52K/G59R | 250 µM | 1/3
Y32G/G104D/D107R | not detected | 0/3
F27S/I58H/G59F | not detected | 0/3
G56D/A61R/F106A | 62 µM | 1/3
M34W/S57H/A61M | not detected | 0/3
S55W/V64F/F106E | 360 µM | 1/3
D30H/V99H/G100P | 72 µM | 2/3
G26I/K65F/G102K | 5.7 µM | 1/3
F27C/G50N/Y108N | 65 µM | 3/3
G50R/V64H/G100H | not detected | 0/3
D30A/M34K/I51K | 76 µM | 2/3
G50Q/I51Y | 160 µM | 1/3
F29H/G50N/S52T | 57 µM | 3/3
D30T/N54A/A61E | not detected | 0/3
G59S/V99A/Y105E | 3.1 mM | 2/3
I51P/V64H/F106S | 11 µM | 2/3
T28E/S55E/A61E | not detected | 0/3
S55G/S57V/D62L | not detected | 0/3
G26Y/S63G/Y108F | not detected | 0/3
G50N/I58K/D107L | not detected | 0/3
M34H/N54G/G103T | not detected | 0/3
T28W/G50R/G102T | not detected | 0/3
H35T/N54W/S57M | not detected | 0/3
I58K/G59H/Y60P | 160 µM | 2/3
Y32M/A33Y/S63I | 600 nM | 3/3
F27Q/I58K | 3.6 µM | 2/3
I51C/K65I/Y105I | 59 µM | 1/3
I58Q/Y60A/K65A | 230 µM | 1/3
G56T/S57C/F106R | not detected | 0/3
I51S/W53L/D62V | not detected | 0/3
Y60L/S63D/K65E | 1.6 µM | 3/3
G56S/G104F/Y105R | 260 µM | 1/3
G59T/Y105N | 12 µM | 1/3
G26A/F27Y/G100V | 300 µM | 1/3
G59R/Y60F/S63K | not detected | 0/3
T28Q/G50M/V64Y | not detected | 0/3
I51F/S55N/G100W | not detected | 0/3

Excerpt, the first 5 entries:

{"changes": "T28S/D31C/G100K", "Kd (apparent)": "660 µM", "detected": "1/3"}
{"changes": "G26S/D30Y/D62L", "Kd (apparent)": "not detected", "detected": "0/3"}
{"changes": "W53I/G59Y/F106I", "Kd (apparent)": "28 µM", "detected": "1/3"}
{"changes": "F29C/S52V/D107F", "Kd (apparent)": "20 µM", "detected": "2/3"}
{"changes": "F29E/I51R/Y108Q", "Kd (apparent)": "not detected", "detected": "0/3"}